Test results taken from patent US8372598B2 (priority 2010, dated 2013).

Assays:
Co-2164 = test: Survival in mutagens; format: cell-based, Clostridium; details: 50 μg/ml MNNG
Co-5673 = test: Survival in mutagens; format: cell-based, Clostridium; details: 50 μg/ml MNNG, 40 minutes, 32° C.

Compound: CN(N=O)C(=N)N[N+](=O)[O-]
- Survival (% of control) (Co-2164; 40 minutes, 32° C., Co-2164): 84%
- Survival (count) (Co-2164; 40 minutes, 32° C., Co-2164): 3.5 × 10^7
- higher survival rate in comparison to Co-5673 (Co-2164; Co-2164 versus Co-5673): 80%
- Survival (% of control) (Co-5673): 4%
- Survival (count) (Co-5673): 3.7 × 10^6
